Results taken from PMC7760315 (Biomolecules, 2020).

Chains of the proteins cited; added tags and fusions are not shown. Residues count along the entry.
UniProt O75311, 34-464: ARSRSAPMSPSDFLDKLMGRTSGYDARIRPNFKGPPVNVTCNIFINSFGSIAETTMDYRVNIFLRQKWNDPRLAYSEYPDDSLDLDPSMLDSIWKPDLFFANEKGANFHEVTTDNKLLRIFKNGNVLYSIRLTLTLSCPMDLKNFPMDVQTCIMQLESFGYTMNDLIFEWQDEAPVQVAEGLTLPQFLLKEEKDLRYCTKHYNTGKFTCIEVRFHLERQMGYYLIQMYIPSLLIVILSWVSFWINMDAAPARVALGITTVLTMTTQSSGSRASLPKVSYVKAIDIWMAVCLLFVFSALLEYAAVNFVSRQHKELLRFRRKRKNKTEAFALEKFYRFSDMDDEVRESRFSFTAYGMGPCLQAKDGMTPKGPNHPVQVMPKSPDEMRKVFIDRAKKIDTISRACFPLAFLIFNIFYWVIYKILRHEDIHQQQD
UniProt P48167, 23-497: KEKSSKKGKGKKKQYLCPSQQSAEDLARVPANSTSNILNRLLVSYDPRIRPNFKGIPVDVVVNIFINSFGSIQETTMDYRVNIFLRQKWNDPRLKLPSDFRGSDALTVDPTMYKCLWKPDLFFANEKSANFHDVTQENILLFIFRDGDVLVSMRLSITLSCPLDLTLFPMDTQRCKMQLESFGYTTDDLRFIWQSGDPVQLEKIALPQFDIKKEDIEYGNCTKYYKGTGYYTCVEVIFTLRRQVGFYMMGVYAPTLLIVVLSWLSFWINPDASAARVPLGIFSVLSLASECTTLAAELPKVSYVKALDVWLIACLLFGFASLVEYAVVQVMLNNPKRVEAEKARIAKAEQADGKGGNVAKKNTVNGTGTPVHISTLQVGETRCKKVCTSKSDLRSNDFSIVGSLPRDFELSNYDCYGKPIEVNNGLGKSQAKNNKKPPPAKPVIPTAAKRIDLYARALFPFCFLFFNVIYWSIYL

Biological target: GlyRα3β (Homo sapiens, UniProt O75311+P48167)
Conditions: read-out: Fast-Flow Glycine EC50
Source text: Human GlyT1b and GlyT2a WT cDNA were subcloned into the plasmid oocyte transcription vector (pOTV) and human GlyRα1, GlyRα3 and GlyRβ into pGEMHE. GlyR cDNA pGEMHE vectors were provided by Mary Collins at the University of Sydney (Sydney, Australia). Single point mutations were introduced into GlyRα1 using the Q5 site-directed mutagenesis kit (New England Biolabs (Genesearch), Arundel, Australia) with oligonucleotide primers (Merck, Sydney, Australia) containing the desired mutations. The amplified cDNA/pOTV or cDNA/pGEMHE product was then transformed in E. coli cells, and subsequently purified using the PureLink Quick Plasmid Miniprep Kit (Invitrogen by Life Technologies, Löhne, Germany), and sequenced by the Australian Genome Research Facility (Sydney, Australia). […]
GlyT1, GlyT2, GlyRα1, GlyRα3, GlyRα1β and GlyRα3β are electrogenic, allowing activation to be measured via the two-electrode voltage clamp technique. Oocytes were voltage clamped at −60 mV, and whole-cell currents generated by the substrate were recorded with a Geneclamp 500 amplifier (Axon Instruments, Foster City, CA, USA), digitised by a Powerlab 2/20 chart recorder (ADInstruments, Sydney, Australia). […]

NCC(=O)O [glycine]
EC50: 109 µM
